Molecular target: T1, Pin1 (Homo sapiens, UniProt Q13526)
T1 construct: host or cells: Escherichia coli BL21 (DE3)
Experiment: Liquid chromatography-based protease-coupled PPIase activity assay, Pin1 (nagarse)
Format: biochemical
Details: 25 nM Pin1 + 50 mM PO4-
Description: A small gap was opened on

Amino acid sequences for entries named in this document (tags omitted). Chains listed by the source or under a name are the forms on record and can include a tag or linker.
UniProt Q13526, with tags, fused parts or gaps: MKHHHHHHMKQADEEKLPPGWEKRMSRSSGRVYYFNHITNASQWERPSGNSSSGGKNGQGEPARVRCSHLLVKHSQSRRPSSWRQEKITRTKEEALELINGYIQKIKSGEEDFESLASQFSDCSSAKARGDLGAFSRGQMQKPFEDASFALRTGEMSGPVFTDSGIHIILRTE

O=P(O)(O)O [PO4-, inorganic phosphate, reference compound]
Pin catalyzing cis to trans isomerization rate k, Exp. 2: 0.00215 s⁻¹
